Biological target: Metabotropic glutamate receptor 7 (Rattus norvegicus, UniProt P35400)
Assay: Negative allosteric modulation of rat mGlu7 expressed in HEK cells co-expressing Galpha15 assessed as reduction in L-AP4-induced intracellular calcium flux pretreated for 142 secs followed by glutamate addition and subsequent stimulation of L-AP4 for 40 secs by Fluo-4 AM dye based fluorescence assay
Format: functional, cell-based

The chains behind the UniProt entries cited, without tags or fusion partners.
UniProt P35400, whole entry: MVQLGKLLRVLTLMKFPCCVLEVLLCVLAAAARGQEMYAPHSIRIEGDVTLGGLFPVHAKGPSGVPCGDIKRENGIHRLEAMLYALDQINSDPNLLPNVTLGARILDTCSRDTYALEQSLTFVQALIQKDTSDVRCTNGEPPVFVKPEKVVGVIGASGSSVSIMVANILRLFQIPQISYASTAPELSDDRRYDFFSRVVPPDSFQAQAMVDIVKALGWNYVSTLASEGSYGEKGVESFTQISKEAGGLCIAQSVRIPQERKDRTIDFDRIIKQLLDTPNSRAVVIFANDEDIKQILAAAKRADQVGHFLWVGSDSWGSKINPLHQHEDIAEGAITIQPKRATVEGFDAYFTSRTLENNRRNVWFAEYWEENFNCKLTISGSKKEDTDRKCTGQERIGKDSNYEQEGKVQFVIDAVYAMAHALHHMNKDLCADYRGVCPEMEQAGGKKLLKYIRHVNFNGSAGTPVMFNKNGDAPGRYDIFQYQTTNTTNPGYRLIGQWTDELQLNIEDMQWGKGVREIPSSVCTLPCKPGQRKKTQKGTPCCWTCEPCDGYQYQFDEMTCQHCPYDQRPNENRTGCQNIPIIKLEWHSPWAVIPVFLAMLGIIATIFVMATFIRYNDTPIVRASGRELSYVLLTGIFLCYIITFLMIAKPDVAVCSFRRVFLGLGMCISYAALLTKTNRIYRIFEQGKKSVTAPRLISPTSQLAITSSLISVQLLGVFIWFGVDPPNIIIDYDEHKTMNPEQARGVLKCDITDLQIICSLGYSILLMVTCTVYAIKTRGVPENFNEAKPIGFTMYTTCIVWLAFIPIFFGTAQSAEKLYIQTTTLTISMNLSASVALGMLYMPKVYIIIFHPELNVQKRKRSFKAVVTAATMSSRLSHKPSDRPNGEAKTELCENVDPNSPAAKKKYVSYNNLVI

SMILES | IC50 [nM]
CCCOc1ccc(C(=O)Nc2cc(OC(F)(F)F)ccc2-n2cncn2)cc1OC | 780
COc1cc(C(=O)Nc2cc(OC(F)(F)F)ccc2-n2cncn2)ccc1OC(C)C | 780
CCOc1ccc(C(=O)Nc2cc(OC(F)(F)F)ccc2-n2cncn2)cc1OC | 510
